In published antibiotic growth screens (doi:10.1038/s41589-023-01349-8) one finds relative growth data, which are given here for 53 molecules.

Molecules are shown by their SMILES. This is one part of the list.

This assay deals with A. baumannii ATCC 17978. Description: relative growth (fraction of control); higher = less inhibition. The conditions noted are these: 50 µM.
Regarding `COc1cccc(NC(=O)N2C[C@@H](O)COC[C@H]3O[C@H](CC(=O)NC4Cc5ccccc5C4)CC[C@@H]32)c1`, the relative growth stood at 1.09.
For the molecule `COc1cccc(NC(=O)N2C[C@@H](O)COC[C@H]3O[C@@H](CC(=O)NCc4ccccc4F)CC[C@@H]32)c1`, the relative growth was found to be 1.01.
In the case of `O=C(C[C@H]1C=C[C@H](NC(=O)c2ccc(F)cc2)[C@@H](CO)O1)NCc1ccncn1`, the relative growth is 0.958.
The molecule `C[C@H](CO)N1C[C@H](C)[C@@H](CN(C)S(=O)(=O)c2ccc(Cl)cc2)OCc2cnnn2CCCC1=O` came in with a relative growth of 0.878.
`C[C@H](CO)N1C[C@H](C)[C@@H](CN(C)C(=O)c2cccnc2)Oc2cc(C#CC3(O)CCCC3)ccc2S1(=O)=O` displayed a relative growth of 1.09.
Turning to `CNC[C@@H](O)c1cccc(O)c1`, the relative growth turned out to be 1.04.
For `CCc1nn(CCCN2CCN(c3cccc(Cl)c3)CC2)c(=O)n1CCOc1ccccc1`, the relative growth came out at 0.948.
`Nc1ncnc2c1ncn2CCN1CCCCC1` registered a relative growth of 1.1.
`Cc1ncc([N+](=O)[O-])n1C[C@@H](O)CCl` came in with a relative growth of 1.06.
The same measure for `O=C(C[C@H]1CC[C@@H]2[C@H](COC[C@H](O)CN2C(=O)c2ccccn2)O1)NC1CCC1`: 1.18.
With `CC(=O)O[C@H]1C[C@@]2(C)[C@@H](C[C@@H](O)[C@@H]3[C@@]4(C)CC[C@@H](O)[C@@H](C)[C@@H]4CC[C@@]32C)/C1=C(/CCC=C(C)C)C(=O)O`, the relative growth came to 0.457.
Take `CC(C)c1cc(=O)n2nc(N)nc2[nH]1`: the relative growth is 0.927.
`C[C@@H](O)C#Cc1ccc2c(c1)O[C@@H](CN(C)C(=O)C1CCCCC1)[C@@H](C)CN([C@@H](C)CO)S2(=O)=O`: the relative growth is 1.
In turn, `Cc1cccc(NC(=O)Nc2ccc3c(c2)C(=O)N(C)[C@H]2CC[C@H](CC(=O)NCc4ccccc4Cl)O[C@H]2CO3)c1` displayed a relative growth of 1.19.
`COc1ccc([Si](C)(C)[C@@H]2[C@@H](CC(=O)N3Cc4ccccc4C[C@H]3CO)O[C@]3(C(=O)N(Cc4cccc(N5CCC5=O)c4)c4ccccc43)[C@H]2C)cc1`: the relative growth was 0.933.
In the case of `C[C@H]1CN([C@@H](C)CO)C(=O)c2cc(C#CC3CCCC3)cnc2O[C@H]1CN(C)C(=O)Cc1ccccn1`, the relative growth turned out to be 1.13.
Then `O=S(=O)(c1cccc2cnccc12)N1CCCNCC1`, with 1.1; and `COC(=O)c1ccc2c(c1)NC(=O)CO2`, with 0.742.
`COC(=O)CCC(C)[C@H]1CCC2C3C(C[C@H](O)[C@@]21C)[C@@]1(C)CC[C@@H](O)C[C@H]1C[C@H]3O` (stereo partly drawn): the relative growth worked out at 0.875.
In the case of `O=C(NC[C@H]1CCCO1)c1ccc(/C=N/O)nc1`, the relative growth worked out at 1.04.
As to `C=C[C@@]1(C)CC(=O)[C@@]2(O)[C@](C)(O1)[C@@H](O)[C@@H](O)C1C(C)(C)CC[C@H](O)[C@@]12C` (stereo partly drawn), the relative growth turned out to be 1.02.
For the molecule `CO[C@@H](C)n1cc(Br)c(=O)[nH]c1=O`, the relative growth came to 1.03.
The molecule `Cc1cc(-c2nnc(N)o2)nn1C` returned a relative growth of 1.09.
`COC(=O)CN1C(=O)COc2ccc(C)cc21`: the relative growth worked out at 1.05.
In turn, `C[C@@H]1CN([C@@H](C)CO)C(=O)c2cc(C#CCN(C)C)cnc2O[C@H]1CN(C)C(=O)CCN1CCCCC1` yielded a relative growth of 1.26.
Turning to `O=C(C[C@H]1CC[C@@H](NC(=O)Cc2ccccn2)[C@@H](CO)O1)NCCCN1CCOCC1`, the relative growth is 1.01.
As to `NC(=O)NC(=O)C[C@H]1Nc2ccccc2NC1=O`, the relative growth was determined as 1.01.
`Cc1ccc(S[C@]2(C(=O)O)CC(=O)N(Cc3ccccc3Cl)[C@@H]2c2ccc(CO)cc2I)cc1` came in with a relative growth of 1.03.
Then `CC(=O)Nc1ccc(OC(C)=O)cc1`, with 1.03.
Molecule `CCC1(C)CC(=O)NC1=O` (stereo not drawn) returned a relative growth of 1.07.
Take `Cc1cccc(S(=O)(=O)N2C[C@@H](O)COC[C@H]3O[C@H](CC(=O)NCCCN4CCOCC4)CC[C@@H]32)c1`: the relative growth was 0.98.
`Cc1oc(C(C)(C)C)cc1C(=O)Nc1ccc(C(C)C)cc1` displayed a relative growth of 0.977.
Consider `C[N+](C)(CCOc1ccccc1)Cc1ccccc1.O=C([O-])c1cc2ccccc2cc1O`, for which the relative growth stood at 0.859.
`CCN(CC)CC(=O)Nc1c(C)cccc1C.Cl` showed a relative growth of 0.97.
As to `O=C(C[C@H]1CC[C@@H]2[C@H](COC[C@H](O)CN2C(=O)c2ccccc2F)O1)N1CCN(c2ccccc2)CC1`, the relative growth was 1.03.
For `O=[N+]([O-])c1ccc(O)c2ncccc12`, the relative growth came to 0.157.
For `CN(C)Cc1cn(CC[C@@H]2CC[C@H](NS(=O)(=O)c3ccccc3)[C@@H](CO)O2)nn1`, the relative growth amounted to 1.06.
Then `c1ccc(/N=C2\S/C(=N\C3CCCCC3)C3=C2CCCC3)cc1`, with 1.11; and `Cc1ccc(S(=O)(=O)NCC[C@@H]2CC[C@H](NS(=O)(=O)c3ccccc3Cl)[C@H](CO)O2)cc1`, with 0.974.
Then `C/C=C(/C)C(=O)O[C@@H]1[C@H](OC(C)=O)[C@@]2(CO)C(CC1(C)C)C1=CCC3[C@@]4(C)CC[C@H](O[C@@H]5O[C@H](C(=O)O)[C@@H](O[C@@H]6O[C@H](CO)[C@@H](O)[C@H](O)[C@H]6O)[C@H](O)[C@H]5O[C@@H]5O[C@H](CO)[C@@H](O)[C@H](O)[C@H]5O)[C@](C)(CO)C4CC[C@@]3(C)[C@]1(C)C[C@H]2O` (stereo partly drawn), with 0.909; and `O=C(C[C@@H]1CC[C@@H]2[C@H](COC[C@H](O)CN2S(=O)(=O)c2ccccc2)O1)N1CCOCC1`, with 0.952; and `NNC(=O)c1ccncc1.Nc1ccc(C(=O)O)c(O)c1`, with 0.963.
The same measure for `O=C1CC[C@]23/C=C/C(=O)NCCCCNCCCNC(=O)/C=C/c4ccc(c2c4)O[C@@H]3C1`: 0.971; for `CN(C)CCOc1ccc([N+](=O)[O-])cn1`: 1.03.
In turn, `NC(=O)c1ccccc1NC(=O)CCC(=O)O` had a relative growth of 1.22.
On to `CC(O)(CC(=O)O)CC(=O)O`, for which the relative growth came to 0.903.
On to `CNCCCC1c2ccccc2C=Cc2ccccc21.Cl`, for which the relative growth turned out to be 1.07.
Then `COC(=O)[C@@H]1C[C@@H](C#N)N[C@@H]1c1ccccn1`, with 1.04; and `COc1ccc([Si](C)(C)[C@H]2[C@H](CC(=O)N(CCO)Cc3ccccc3)O[C@@]3(C(=O)N(C)c4c(Br)cc(C)cc43)[C@@H]2C)cc1`, with 0.674; and `CC(=O)O[C@@H]1CC2C(C)(C)[C@H](O)CC[C@]2(C)C2CC[C@@]3(C)[C@H](c4ccoc4)OC(=O)C4OC43[C@@]21C` (stereo partly drawn), with 0.92.
For the molecule `CCC(C)(C)C(=O)O[C@H]1C[C@@H](C)C=C2C=C[C@H](C)[C@H](CC[C@@H]3C[C@@H](O)CC(=O)O3)[C@H]21`, the relative growth turned out to be 0.885.
Then `C[C@H]1CN([C@@H](C)CO)C(=O)c2cc(-c3cccc(C(=O)N(C)C)c3)cnc2O[C@H]1CN(C)S(=O)(=O)c1cccc(F)c1`, with 1.15; and `O=C(C[C@H]1CC[C@@H](NC(=O)C2CC2)[C@H](CO)O1)NCCCN1CCOCC1`, with 1.04.
